One assay addresses NMDA PCP site (Rattus norvegicus, UniProt P35439). Particulars: cited from earlier work.
Another assay addresses activated NMDA receptors (Rattus norvegicus, UniProt P35439). Briefly: [^18F]FNM microPET/CT brain uptake after stereotaxic quinolinic acid (QA) injection. Conditions: for mean SUVR of the [^18F]FNM uptake VOI (SUV area/SUV cerebellum): injured rats, frontal and left somatosensory areas.
Where [1] appears, read: NaCl_right cortex, 24 h post-injury.
The mark [2] stands for this setting: NaCl_right cortex, 72 h post-injury.
Setting [3] is: QA_left_cortex, 72 h post-injury.

Several values for one entry are separate records, joined by “and”; a condition that tells them apart may be missing. Equal entries are not always repeated. Where two headings read alike, the source gives them in different places.

As for “[^3H]N-(1-[thienyl]cyclohexyl)piperidine”, the Kd at NMDA PCP site (rat forebrain, ref Bénavidès et al. 32) is 21 nM; on NMDA PCP site (rat frontal cortex, ref Vignon et al. 31) it was 6.5 nM; on NMDA PCP site (rat hippocampus, ref Vignon et al. 31), 5.5 nM.
On to [^18F]-fluoroethylnormemantine, for which the “Mean number of voxels ± SD with z-score > 3” value on activated NMDA receptors (setting [1]) was found to be 153 ± 4; at activated NMDA receptors (setting [2]), 141 ± 58; on activated NMDA receptors (setting [3]), 1644 ± 624. The “percentage of voxels with z-score > 3 (mean ± SD)” value at activated NMDA receptors (setting [1]) is 0.7 ± 0.03%; on activated NMDA receptors (setting [2]) it was 0.7 ± 0.5% and 0.65 ± 0.46%; on activated NMDA receptors (QA_left_cortex, 24 h post-injury) it was 12.1 ± 7.7%; at activated NMDA receptors (setting [3]) it was 7.5 ± 6.4% and 7.54 ± 6.40%. For the same substance, at activated NMDA receptors (frontal and somatosensory areas of controls (non-injured rats)), the “mean SUVR (SUV area/SUV cerebellum)” value was 1.10 ± 0.12. Moreover, the figures for the “mean SUVR of the [^18F]FNM uptake VOI (SUV area/SUV cerebellum)” value on activated NMDA receptors (24 h after injury) and on activated NMDA receptors (72 h after injury) were 1.51 ± 0.08 and 1.55 ± 0.15, respectively.

For orientation: Kd means the constant that tells how readily two partners part at equilibrium.
